The results in this text go back to BindingDB's records for US8969358.

The chains behind the UniProt entries cited, without tags or fusion partners.
UniProt P41143, whole entry: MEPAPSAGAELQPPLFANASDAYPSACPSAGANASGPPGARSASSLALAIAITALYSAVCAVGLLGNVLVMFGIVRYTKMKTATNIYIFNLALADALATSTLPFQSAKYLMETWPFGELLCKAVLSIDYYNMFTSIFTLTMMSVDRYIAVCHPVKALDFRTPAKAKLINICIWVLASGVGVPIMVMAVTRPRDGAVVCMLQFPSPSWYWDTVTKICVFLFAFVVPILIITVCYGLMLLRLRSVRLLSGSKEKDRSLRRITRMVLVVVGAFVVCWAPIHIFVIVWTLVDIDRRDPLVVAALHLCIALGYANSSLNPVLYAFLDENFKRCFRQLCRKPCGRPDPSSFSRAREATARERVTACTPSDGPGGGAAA
UniProt P41145, whole entry: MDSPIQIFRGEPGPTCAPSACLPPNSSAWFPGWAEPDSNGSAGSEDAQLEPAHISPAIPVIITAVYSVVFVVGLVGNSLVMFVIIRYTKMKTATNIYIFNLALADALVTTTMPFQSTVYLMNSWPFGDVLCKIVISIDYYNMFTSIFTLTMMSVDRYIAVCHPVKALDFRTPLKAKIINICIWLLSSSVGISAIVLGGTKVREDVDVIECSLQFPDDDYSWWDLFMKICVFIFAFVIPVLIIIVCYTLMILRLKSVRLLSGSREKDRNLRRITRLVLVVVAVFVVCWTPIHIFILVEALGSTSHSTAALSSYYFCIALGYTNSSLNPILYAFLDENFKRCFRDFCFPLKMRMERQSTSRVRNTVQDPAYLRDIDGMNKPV
UniProt P35372, whole entry: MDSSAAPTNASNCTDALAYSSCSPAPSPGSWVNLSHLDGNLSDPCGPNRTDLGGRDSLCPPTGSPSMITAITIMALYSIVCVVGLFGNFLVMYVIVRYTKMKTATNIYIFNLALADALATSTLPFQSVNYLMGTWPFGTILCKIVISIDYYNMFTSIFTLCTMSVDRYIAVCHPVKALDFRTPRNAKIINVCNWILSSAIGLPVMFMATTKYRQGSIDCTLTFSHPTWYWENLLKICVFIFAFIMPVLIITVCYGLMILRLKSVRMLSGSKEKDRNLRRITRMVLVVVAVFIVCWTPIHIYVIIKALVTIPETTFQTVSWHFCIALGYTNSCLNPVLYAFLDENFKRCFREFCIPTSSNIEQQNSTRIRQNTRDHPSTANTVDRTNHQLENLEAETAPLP

Holding throughout (assay): Binding Assay
Common to all, as to details: pH 7.4

Experiment [1] addresses Delta-type opioid receptor (Homo sapiens, UniProt P41143).
Experiment [2] concerns the target Kappa-type opioid receptor (Homo sapiens, UniProt P41145).
Experiment [3] concerns the target Mu-type opioid receptor (Homo sapiens, UniProt P35372).

Broadly, the Ki is a dissociation constant, usually derived from enzyme kinetics or from competition with a known ligand. Low values mean a stronger hold on the target, high ones a looser hold on the target. Turning to `COC12CC[C@@]3(C[C@@H]1CNC(=O)c1ccccc1C(=O)O)[C@H]1Cc4ccc(O)c5c4[C@@]3(CCN1CC1CC1)[C@H]2O5`, the Ki came to 6.46 nM in experiment [1], 0.32 nM in experiment [2] and 1.51 nM in experiment [3]. Turning to `CO[C@]12CC[C@@]3(C[C@@H]1CNC(=O)[C@H](CO)NC(C)=O)[C@H]1Cc4ccc(O)c5c4[C@@]3(CCN1CC1CC1)[C@H]2O5`, the Ki in experiment [2] stood at 0.61 nM; in experiment [3], 5.83 nM.

Take `CO[C@]12CC[C@@]3(C[C@@H]1CNS(C)(=O)=O)[C@H]1Cc4ccc(O)c5c4[C@@]3(CCN1CC1CC1)[C@H]2O5`: affinity in experiment [2] was put at a Ki of 0.74 nM. The same measure, in the same setting: for `CO[C@]12CC[C@@]3(C[C@@H]1CNS(=O)(=O)C(F)(F)F)[C@H]1Cc4ccc(O)c5c4[C@@]3(CCN1CC1CC1)[C@H]2O5` the value was 0.37 nM. Compound `CO[C@]12CC[C@@]3(C[C@@H]1CNC(=O)CN)[C@H]1Cc4ccc(O)c5c4[C@@]3(CCN1CC1CC1)[C@H]2O5` displayed a Ki in experiment [3] of 0.53 nM. Turning to `CO[C@]12CC[C@@]3(C[C@@H]1CNC(=O)[C@@H](N)Cc1c[nH]cn1)[C@H]1Cc4ccc(O)c5c4[C@@]3(CCN1CC1CC1)[C@H]2O5`, the Ki was determined as 0.25 nM in experiment [2] and 3.18 nM in experiment [3]. For `CO[C@]12CC[C@@]3(C[C@@H]1CNC(=O)[C@H](Cc1ccccc1)NC(C)=O)[C@H]1Cc4ccc(O)c5c4[C@@]3(CCN1CC1CC1)[C@H]2O5` the same measures were 0.16 nM and 0.36 nM. In experiment [2], `COC12CC[C@@]3(C[C@@H]1CNC(=O)Nc1cccc(C)c1)[C@H]1Cc4ccc(O)c5c4[C@@]3(CCN1CC1CC1)[C@H]2O5` yielded a Ki of 0.1 nM. Turning to `CO[C@]12CC[C@@]3(C[C@@H]1CNC(=O)[C@@H](N)Cc1ccccc1)[C@H]1Cc4ccc(O)c5c4[C@@]3(CCN1CC1CC1)[C@H]2O5`, the Ki in experiment [1] was found to be 2.01 nM; in experiment [2], 0.06 nM; in experiment [3], 3.66 nM.

For the compound `CO[C@]12CC[C@@]3(C[C@@H]1CNC(=O)[C@@H](N)Cc1ccc(O)cc1)[C@H]1Cc4ccc(O)c5c4[C@@]3(CCN1CC1CC1)[C@H]2O5`, affinity in experiment [3] was put at a Ki of 0.77 nM.
